Assay results as given in ChEMBL document CHEMBL5316301, “Dual Nicotinamide Phosphoribosyltransferase (NAMPT) and Indoleamine 2,3-Dioxygenase 1 (IDO1) Inhibitors for the Treatment of Drug-Resistant Nonsmall-Cell Lung Cancer” (J Med Chem, 2023).
Calls of active or inactive are those of the source. The calls are words filed in the database; no cut-off is given here.

The chains behind the UniProt entries cited, without tags or fusion partners.
UniProt P14902, whole entry, looked up: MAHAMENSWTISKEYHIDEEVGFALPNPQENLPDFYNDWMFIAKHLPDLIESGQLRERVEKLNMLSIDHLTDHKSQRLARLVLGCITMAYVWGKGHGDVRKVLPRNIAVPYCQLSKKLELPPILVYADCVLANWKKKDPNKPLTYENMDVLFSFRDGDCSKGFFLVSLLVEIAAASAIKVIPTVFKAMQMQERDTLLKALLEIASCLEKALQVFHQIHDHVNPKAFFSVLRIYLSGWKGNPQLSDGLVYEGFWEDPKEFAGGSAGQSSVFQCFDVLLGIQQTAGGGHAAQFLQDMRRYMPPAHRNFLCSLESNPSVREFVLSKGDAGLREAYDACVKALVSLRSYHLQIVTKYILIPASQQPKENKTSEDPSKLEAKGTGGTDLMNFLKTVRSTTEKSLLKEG

Legend:
A549 [1] = assay: Downregulation of ATP level in human A549 cells measured for 48 hrs; format: functional, cell-based; conditions: dose 10-40 nM
A549 [2] = assay: Antimigratory activity against NAMPT inhibitor-resistant A549 cells assessed as reduction in cell migration at 40 uM incubated for 24 hrs in presence of epacadostat by inverted microscopic analysis; format: functional, cell-based; conditions: Homo sapiens
A549 [3] = assay: Antiproliferative activity against NAMPT inhibitor-resistant A549 cells assessed as reduction in cell viability in presence of verapamil; format: functional, cell-based; conditions: Homo sapiens
A549 [4] = assay: Downregulation of NAD+ level in human A549 cells at 10 to 40 nM measured for 48 hrs; format: functional, cell-based; conditions: dose 10-40 nM
[5] = target: T1, Indoleamine 2,3-dioxygenase 1 (Homo sapiens, UniProt P14902); assay: Potency index, ratio of epacadostat IC50 to test compound IC50 for inhibition of human recombinant IDO1 in human HeLa cells; format: cell-based
[6] = target: T1, Indoleamine 2,3-dioxygenase 1; assay: Potency index, ratio of epacadostat IC50 to test compound IC50 for inhibition of human recombinant IDO1

O=C(/C=C/c1cccnc1)NCCCCC1CCN(C(=O)c2ccccc2)CC1 [DAPORINAD]
Activity (A549 [1]): Dose-Dependent Effect
Activity (A549 [2]): Active
Activity (A549 [3]): inactive
Activity (A549 [4]): Active

O=C(NCCCCCCNc1nonc1/C(=N/O)Nc1ccc(F)c(Br)c1)c1ccc2nccn2c1
Ratio IC50 [5]: 8.6
Ratio IC50 [6]: 3
